Laboratory results reported in patent US20130324493A1, “COMPOSITIONS COMPRISING NINGNANMYCIN AND USES THEREFOR” (North Carolina State University, priority 2012, published 2013).

Test system: dollar spot (S. homoeocarpa)
Details: for Turf quality: 1-to-9 scale (9 = best), dollar spot trial
[1] = Ningnanmycin 10WP 0.30 g/m^2, 7 d interval, Oct. 12, 2011
[2] = Ningnanmycin 10WP 0.30 g/m^2, 7 d interval, Oct. 18, 2011
[3] = Ningnanmycin 10WP 0.30 g/m^2, 7 d interval, Oct. 26, 2011
[4] = Ningnanmycin 10WP 0.45 g/m^2, 14 d interval, Oct. 12, 2011
[5] = Ningnanmycin 10WP 0.45 g/m^2, 14 d interval, Oct. 18, 2011
[6] = Ningnanmycin 10WP 0.45 g/m^2, 14 d interval, Oct. 26, 2011

SMILES: CNCC(=O)NC(CO)C(=O)NC1C(C(N)=O)OC(n2ccc(N)nc2=O)C(O)C1O [ningnanmycin, 4-sarcosinamido-L-serinamido-4-deoxy-β-D-pyranoglucuronamido]
- Turf quality [1]: 7.1 a
- Turf quality [2]: 7.9 a
- Turf quality [3]: 7.6 a
- Turf quality (Ningnanmycin 10WP 0.45 g/m^2, 7 d interval, Oct. 12, 2011): 6.4 b
- Turf quality (Ningnanmycin 10WP 0.45 g/m^2, 7 d interval, Oct. 18, 2011): 7.9 a
- Turf quality (Ningnanmycin 10WP 0.45 g/m^2, 7 d interval, Oct. 26, 2011): 7.6 a
- Turf quality [4]: 7.1 a
- Turf quality [5]: 7.9 a
- Turf quality [6]: 7.6 a
- Turf quality (Ningnanmycin 10WP 0.60 g/m^2, 14 d interval, Oct. 12, 2011): 6.6 ab
- Turf quality (Ningnanmycin 10WP 0.60 g/m^2, 14 d interval, Oct. 18, 2011): 7.4 a
- Turf quality (Ningnanmycin 10WP 0.60 g/m^2, 14 d interval, Oct. 26, 2011): 7.1 a
- dollar spot control (in words) (2010, 0.30 g/m^2, 7-day interval): best control
- dollar spot control (in words) (2011, 0.45 g/m^2, 7-day interval, after the second application): completely eliminated dollar spot
- Dollar spot incidence (Ningnanmycin 10WP 0.15 g/m^2, 7 d interval, Aug. 3, 2010): 0 infection centers per plot
- Dollar spot incidence (Ningnanmycin 10WP 0.15 g/m^2, 7 d interval, Aug. 11, 2010): 0 infection centers per plot
- Dollar spot incidence (Ningnanmycin 10WP 0.15 g/m^2, 7 d interval, Aug. 17, 2010): 0 infection centers per plot
- Dollar spot incidence (Ningnanmycin 10WP 0.15 g/m^2, 7 d interval, Jul. 14, 2010): 2 infection centers per plot
- Dollar spot incidence (Ningnanmycin 10WP 0.15 g/m^2, 7 d interval, Jul. 21, 2010): 0 infection centers per plot
- Dollar spot incidence (Ningnanmycin 10WP 0.15 g/m^2, 7 d interval, Jul. 27, 2010): 1 infection centers per plot
- Dollar spot incidence (Ningnanmycin 10WP 0.15 g/m^2, 14 d interval, Aug. 3, 2010): 37 infection centers per plot
- Dollar spot incidence (Ningnanmycin 10WP 0.15 g/m^2, 14 d interval, Aug. 11, 2010): 23 infection centers per plot
- Dollar spot incidence (Ningnanmycin 10WP 0.15 g/m^2, 14 d interval, Aug. 17, 2010): 16 infection centers per plot
- Dollar spot incidence (Ningnanmycin 10WP 0.15 g/m^2, 14 d interval, Jul. 14, 2010): 4 infection centers per plot
- Dollar spot incidence (Ningnanmycin 10WP 0.15 g/m^2, 14 d interval, Jul. 21, 2010): 18 infection centers per plot
- Dollar spot incidence (Ningnanmycin 10WP 0.15 g/m^2, 14 d interval, Jul. 27, 2010): 3 infection centers per plot
- Dollar spot incidence (Ningnanmycin 10WP 0.30 g/m^2, 7 d interval, Aug. 3, 2010): 0 infection centers per plot
- Dollar spot incidence (Ningnanmycin 10WP 0.30 g/m^2, 7 d interval, Aug. 11, 2010): 0 infection centers per plot
- Dollar spot incidence (Ningnanmycin 10WP 0.30 g/m^2, 7 d interval, Aug. 17, 2010): 0 infection centers per plot
- Dollar spot incidence (Ningnanmycin 10WP 0.30 g/m^2, 7 d interval, Jul. 14, 2010): 1 infection centers per plot
- Dollar spot incidence (Ningnanmycin 10WP 0.30 g/m^2, 7 d interval, Jul. 21, 2010): 0 infection centers per plot
- Dollar spot incidence (Ningnanmycin 10WP 0.30 g/m^2, 7 d interval, Jul. 27, 2010): 0 infection centers per plot
- Dollar spot incidence (Ningnanmycin 10WP 0.30 g/m^2, 7 d interval, Oct. 4, 2011): 2 infection centers per plot
- Dollar spot incidence [1]: 1 infection centers per plot
- Dollar spot incidence [2]: 1 infection centers per plot
- Dollar spot incidence [3]: 0 infection centers per plot
- Dollar spot incidence (Ningnanmycin 10WP 0.30 g/m^2, 7 d interval, Sep. 9, 2011): 11 infection centers per plot
- Dollar spot incidence (Ningnanmycin 10WP 0.30 g/m^2, 7 d interval, Sep. 16, 2011): 6 infection centers per plot
- Dollar spot incidence (Ningnanmycin 10WP 0.30 g/m^2, 7 d interval, Sep. 26, 2011): 5 infection centers per plot
- Dollar spot incidence (Ningnanmycin 10WP 0.30 g/m^2, 14 d interval, Aug. 3, 2010): 14 infection centers per plot
- Dollar spot incidence (Ningnanmycin 10WP 0.30 g/m^2, 14 d interval, Aug. 11, 2010): 9 infection centers per plot
- Dollar spot incidence (Ningnanmycin 10WP 0.30 g/m^2, 14 d interval, Aug. 17, 2010): 3 infection centers per plot
- Dollar spot incidence (Ningnanmycin 10WP 0.30 g/m^2, 14 d interval, Jul. 14, 2010): 3 infection centers per plot
- Dollar spot incidence (Ningnanmycin 10WP 0.30 g/m^2, 14 d interval, Jul. 21, 2010): 8 infection centers per plot
- Dollar spot incidence (Ningnanmycin 10WP 0.30 g/m^2, 14 d interval, Jul. 27, 2010): 0 infection centers per plot
- Dollar spot incidence (Ningnanmycin 10WP 0.30 g/m^2, 14 d interval, Oct. 4, 2011): 30 infection centers per plot
- Dollar spot incidence (Ningnanmycin 10WP 0.30 g/m^2, 14 d interval, Sep. 9, 2011): 31 infection centers per plot
- Dollar spot incidence (Ningnanmycin 10WP 0.30 g/m^2, 14 d interval, Sep. 16, 2011): 20 infection centers per plot
- Dollar spot incidence (Ningnanmycin 10WP 0.30 g/m^2, 14 d interval, Sep. 26, 2011): 57 infection centers per plot
- Dollar spot incidence (Ningnanmycin 10WP 0.45 g/m^2, 7 d interval (raised from 0.15 g/m^2 starting 5 October), Oct. 12, 2011): 5 infection centers per plot
- Dollar spot incidence (Ningnanmycin 10WP 0.45 g/m^2, 7 d interval (raised from 0.15 g/m^2 starting 5 October), Oct. 18, 2011): 0 infection centers per plot
- Dollar spot incidence (Ningnanmycin 10WP 0.45 g/m^2, 7 d interval (raised from 0.15 g/m^2 starting 5 October), Oct. 26, 2011): 0 infection centers per plot
- Dollar spot incidence (Ningnanmycin 10WP 0.45 g/m^2, 14 d interval, Oct. 4, 2011): 5 infection centers per plot
- Dollar spot incidence [4]: 2 infection centers per plot
- Dollar spot incidence [5]: 1 infection centers per plot
- Dollar spot incidence [6]: 1 infection centers per plot
- Dollar spot incidence (Ningnanmycin 10WP 0.45 g/m^2, 14 d interval, Sep. 9, 2011): 5 infection centers per plot
- Dollar spot incidence (Ningnanmycin 10WP 0.45 g/m^2, 14 d interval, Sep. 16, 2011): 3 infection centers per plot
- Dollar spot incidence (Ningnanmycin 10WP 0.45 g/m^2, 14 d interval, Sep. 26, 2011): 14 infection centers per plot
- Dollar spot incidence (Ningnanmycin 10WP 0.60 g/m^2, 14 d interval (raised from 0.30 g/m^2 starting 5 October), Oct. 12, 2011): 5 infection centers per plot
- Dollar spot incidence (Ningnanmycin 10WP 0.60 g/m^2, 14 d interval (raised from 0.30 g/m^2 starting 5 October), Oct. 18, 2011): 6 infection centers per plot
- Dollar spot incidence (Ningnanmycin 10WP 0.60 g/m^2, 14 d interval (raised from 0.30 g/m^2 starting 5 October), Oct. 26, 2011): 7 infection centers per plot
- Dollar spot incidence (Ningnanmycin 10WP 015 g, 7 d interval, Oct. 4, 2011): 27 infection centers per plot
- Dollar spot incidence (Ningnanmycin 10WP 015 g, 7 d interval, Sep. 9, 2011): 42 infection centers per plot
- Dollar spot incidence (Ningnanmycin 10WP 015 g, 7 d interval, Sep. 16, 2011): 60 infection centers per plot
- Dollar spot incidence (Ningnanmycin 10WP 015 g, 7 d interval, Sep. 26, 2011): 30 infection centers per plot

Read-outs that look alike come from different tables or passages of the source.
